Assay results taken from patent US20210008075A1, “PEDIATRIC DOSING FOR TREATMENT OF CANCER WITH AN EZH2 INHIBITOR” (Epizyme, Inc., priority 2015, published 2021).

How the values were obtained:
[1] = tested on: SMARCB1-deleted G401 cells; conditions: in vitro, ATP content, versus RD cells
[2] = adults, suspension and tablet formulations
Medulloblastoma cells = assay: Medulloblastoma cell growth, total cells per milliliter counted; assay type: cell-based; conditions: 0.5 μM, 2 μM and 6 μM
[3] = tested on: primary medulloblastoma cells; conditions: 500 nM or 2 μM for 4 days, BrdU for 4 hours

SMILES: CCN(c1cc(-c2ccc(CN3CCOCC3)cc2)cc(C(=O)NCc2c(C)cc(C)[nH]c2=O)c1C)C1CCOCC1 [tazemetostat]
- proliferation of SMARCB1-deleted G401 cells [1]: Selective inhibition of proliferation
- predicted mean steady-state Cmax relative to observed values [2]: ≤ 2 fold
- concentration dependence of effect on medulloblastoma cell growth (Medulloblastoma cells): concentration dependent
- number of cells synthesizing DNA (BrdU incorporation) [3]: significantly decreased
